Source: PubChem BioAssay AID2101 (National Center for Advancing Translational Sciences (NCATS), 2009)
The entries are a selection whose mix differs from that of the whole data set. Results filed as inconclusive are left out. Activity calls are given as the source filed them. Calls come from the whole dose curve; as a rule, active = well fitted inhibition curve with a large enough effect; inconclusive = small, poorly fitted or top-dose-only effect, or effect the other way, or another doubt; inactive = no such curve, though single readings can be large or run the other way.

biological target: Lysosomal acid glucosylceramidase (Homo sapiens) (UniProt P04062); test: qHTS Assay for Inhibitors and Activators of N370S glucocerebrosidase as a Potential Chaperone Treatment of Gaucher Disease; conditions: N370S GC spleen homogenate, 4MU-glucoside fluorescence; at 59.4 µM (top of the series);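 note: 0% = full enzyme activity and -100% = no enzyme basal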
Excerpt: NIH Chemical Genomics Center [NCGC]
NIH Molecular Libraries Probe Production Centers Network [MLPCN]
Assay Submitter (PI): Wei Zheng
Glucocerebrosidase (GC) catalyzes the hydrolysis of beta-glucocerebroside to glucose and ceramide in lysosomes. Mutations in the glucocerebrosidase gene result in Gaucher disease, an autosomal recessive lysosomal storage disorder. Many of the mutations encountered in patients with Gaucher disease are missense alterations that may cause misfolding, decreased stability and/or mistrafficking of this lysosomal protein. […] These inhibitors include iminosugar analogs and three non-iminosugar inhibitors identified from a previous HTS of 62,000 compounds with the wild type recombinant enzyme. […]
This is a fluorogenic enzyme assay with 4-methylumbelliferyl-beta-D-glucopyranoside as the substrate and N370S glucocerebrosidase from human spleen homogenate as the enzyme preparation. Upon the hydrolysis of this fluorogenic substrate, the resulting product, […] which can be detected by a standard fluorescence plate reader. […] The AC50 values were determined from concentration-response data modeled with the standard Hill equation. […]
(6) Detect the assay plate in a ViewLux plate reader (PerkinElmer) with Ex=365 nm and Em=440nm. […]

Question: O=[N+]([O-])c1cc([N+](=O)[O-])c(CCNc2ccccc2)c([N+](=O)[O-])c1 was tested. Which activity change, negative = inhibition did it give?
Answer: inactive: -12%

Question: For COc1ccc(OP(C)(=O)Nc2ccccn2)cc1 (configuration not stated), which activity change, negative = inhibition is on record?
Answer: inactive: -1.45%
